Measurements: US20240299275A1, “HYDROXY ACIDS FOR SCALP AND HAIR IN SULFATE FREE PERSONAL CARE COMPOSITIONS” (The Procter & Gamble Company, priority 2023, published 2024)
Values joined by “and” are separate entries in the source; they are usually repeats but may differ in a detail not shown here. Equal values may be shown once.

Assay: Surfactant stability: change in lauric acid concentration of surfactant solutions after 65 C for 1 month vs baseline (HPLC/MS/MS)
Assay type: physicochemical
Conditions: 5.0% Cocamidopropyl Betaine + 5.0% anionic surfactant, 65 C 1 month
Protocol: Lowering the personal care composition's pH is a key driver of hydroxy acid delivery to the hair and the skin under the hair. However, lowering pH reduces the options of suitable anionic surfactants free-of sulfates as many are susceptible to hydrolysis. Therefore, surfactant stability is analyzed by measuring the change in lauric acid concentration of surfactant solutions after exposure to high temperature (65 C) for 1 month and at range of pH vs. baseline conditions (surfactant solutions as made at ambient temperature of about 25 C). As shown in the table below, the Taurate surfactants are less susceptible to degradation at lower pH and (rows 8-10, 17-21 and 30-33) vs. other common amino acid based anionic surfactants (Sarcosinate, Alaninate, Glutamate, Glycinate, and Isethionate).
Approximately 10 mg of each sample is weighed into a vial and 10 mL of isopropanol (IPA) added and mixed. An aliquot of the diluted sample (0.1 mL) is then transferred into an autosampler vial containing stable-isotope-labeled (D23 lauric acid) internal standard (ISTD) and diluent (85/15 IPA/water, 0.9 mL). A set of lauric acid standards is prepared over an appropriate calibration range in diluent and spiked with ISTD. The standards and samples are analyzed using gradient reversed-phase high performance liquid chromatography with tandem mass spectrometry (HPLC/MS/MS). Lauric acid and the ISTD are monitored by negative ion electrospray (ESI) using “pseudo” selected reaction monitoring (i.e., a precursor-to-precursor transition with no mass loss). A standard curve is constructed by plotting the peak area ratio (peak area lauric acid/peak area ISTD) for each standard versus lauric acid concentration. The amount of lauric acid in the calibration standards and diluted samples is back-calculated using the generated regression equation. The result is reported as the mass of lauric acid per g of sample (% Lauric Acid).

Substance: Disodium cocoyl glutamate
- Delta % lauric acid/Anionic Surfactant Conc. (pH 5.2): 2.943% and 2.308% and 3.907%
- Delta % lauric acid/Anionic Surfactant Conc. (pH 5.8): 2.527%
- Delta % lauric acid/Anionic Surfactant Conc. (pH 6.5): 0.516%
